{
  "source": "patent US5792767A",
  "about": "“Bicyclic substituted hexahydrobenz [e] isoindole alpha-1 adrenergic antagonists” (priority 1995, dated 1998)",
  "target": "T1, α-1A adrenoceptor (rat vas deferens) (Rattus norvegicus, UniProt P43140)",
  "T1 sequence (P43140 1-466)": "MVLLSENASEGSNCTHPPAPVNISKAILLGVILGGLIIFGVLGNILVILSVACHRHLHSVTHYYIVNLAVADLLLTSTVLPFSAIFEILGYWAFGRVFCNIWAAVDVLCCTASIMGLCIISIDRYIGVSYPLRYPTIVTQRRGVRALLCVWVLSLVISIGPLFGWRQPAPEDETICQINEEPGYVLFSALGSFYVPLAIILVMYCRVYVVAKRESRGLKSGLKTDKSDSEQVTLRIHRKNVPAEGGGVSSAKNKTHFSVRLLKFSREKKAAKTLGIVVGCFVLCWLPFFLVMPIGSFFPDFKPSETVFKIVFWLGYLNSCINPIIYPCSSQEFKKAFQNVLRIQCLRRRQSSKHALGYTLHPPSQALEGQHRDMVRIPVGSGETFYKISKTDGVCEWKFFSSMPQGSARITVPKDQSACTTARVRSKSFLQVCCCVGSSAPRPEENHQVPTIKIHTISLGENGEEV",
  "assay": "Functional antagonism of phenylephrine-induced contraction of rat vas deferens",
  "note": "Where a name gives a salt, the structure may show the parent alone.",
  "data": [
    {"smiles": "COc1cc2[nH]c(=O)n(CCN3C[C@@H]4CCc5c(OC)cccc5[C@@H]4C3)c(=O)c2cc1OC", "note": "(relative stereo) [Example 10, hydrochloride]", "values": [
      {"measurement": "Kb", "result": 9.12, "unit": "nM"}
    ]},
    {"smiles": "COc1cc2nc(N3CCN(C(=O)C4CCCO4)CC3)nc(N)c2cc1OC", "note": "(stereo not drawn) [terazosin, reference compound]", "values": [
      {"measurement": "pA2 Rat Vas Deferens [α-1A]", "setting": "vs phenylephrine-induced contraction, Schild plot", "result": 8.04}
    ]},
    {"smiles": "COc1cccc2c1CC[C@H]1CN(CCn3c(=O)[nH]c4cc(Cl)ccc4c3=O)C[C@@H]21", "note": "(relative stereo) [Example 11, hydrochloride]", "values": [
      {"measurement": "Kb", "result": 2.04, "unit": "nM"}
    ]}
  ]
}
